SMILES strings stand for the structures.

This test concerns the target T1, Phospholipase A2, membrane associated (Homo sapiens) (UniProt P14555).
T1 sequence (whole entry): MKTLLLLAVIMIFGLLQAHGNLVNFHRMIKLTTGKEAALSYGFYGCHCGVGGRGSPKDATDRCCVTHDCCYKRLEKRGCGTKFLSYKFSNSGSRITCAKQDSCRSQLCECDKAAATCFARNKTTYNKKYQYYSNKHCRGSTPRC
The settings on record: 10 uM.

For `COC(=O)c1cc(Cc2ccccc2OC)nc2ccc(Cl)cc12`, the inhibition was 87%.

`COC(=O)c1cc(-c2ccc(OC)cc2)nc2ccc(C(F)(F)F)cc12`: the inhibition stood at 71%.

A word on the inhibition: it is the change of the read-out against control, counted positive when it falls. Read a high inhibition as a response far below the control.

(Values after ChEMBL document CHEMBL1811889, “Quinoline-4-methyl esters as human nonpancreatic secretory phospholipase A₂ inhibitors” (Bioorg Med Chem, 2011).)
